From ChEMBL document CHEMBL5316308, “BET-HDAC Dual Inhibitors for Combinational Treatment of Breast Cancer and Concurrent Candidiasis” (J Med Chem, 2023)

Molecular target: T1, Histone deacetylase 8 (Homo sapiens, UniProt Q9BY41)
T1 sequence (Q9BY41 whole entry): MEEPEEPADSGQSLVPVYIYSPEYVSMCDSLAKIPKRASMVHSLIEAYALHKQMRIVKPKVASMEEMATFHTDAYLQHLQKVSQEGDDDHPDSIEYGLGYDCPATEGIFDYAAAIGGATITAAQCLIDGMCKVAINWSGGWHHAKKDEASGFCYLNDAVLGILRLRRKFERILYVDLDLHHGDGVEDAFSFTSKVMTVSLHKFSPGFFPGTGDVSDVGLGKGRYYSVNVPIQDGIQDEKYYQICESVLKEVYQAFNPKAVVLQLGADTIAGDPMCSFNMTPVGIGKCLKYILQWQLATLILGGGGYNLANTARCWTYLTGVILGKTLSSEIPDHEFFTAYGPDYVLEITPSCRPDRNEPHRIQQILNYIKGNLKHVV
Experiment: Inhibition of C-terminal His-tagged full-length recombinant human HDAC8 expressed in baculovirus infected Sf9 insect cells using Ac-Leu-Gly-Lys(Tfa)-AMC as substrate incubated for 30 mins by fluorescence based assay

O=C(CCCCCCC(=O)Nc1ccccc1)NO [VORINOSTAT]
IC50: 3.82 µM
